Experimental data taken from article PMC2820364 (The Biochemical journal, 2008).

Amino acid sequences for entries named in this document (tags omitted).
UniProt P42338, whole entry D862Q, species assumed: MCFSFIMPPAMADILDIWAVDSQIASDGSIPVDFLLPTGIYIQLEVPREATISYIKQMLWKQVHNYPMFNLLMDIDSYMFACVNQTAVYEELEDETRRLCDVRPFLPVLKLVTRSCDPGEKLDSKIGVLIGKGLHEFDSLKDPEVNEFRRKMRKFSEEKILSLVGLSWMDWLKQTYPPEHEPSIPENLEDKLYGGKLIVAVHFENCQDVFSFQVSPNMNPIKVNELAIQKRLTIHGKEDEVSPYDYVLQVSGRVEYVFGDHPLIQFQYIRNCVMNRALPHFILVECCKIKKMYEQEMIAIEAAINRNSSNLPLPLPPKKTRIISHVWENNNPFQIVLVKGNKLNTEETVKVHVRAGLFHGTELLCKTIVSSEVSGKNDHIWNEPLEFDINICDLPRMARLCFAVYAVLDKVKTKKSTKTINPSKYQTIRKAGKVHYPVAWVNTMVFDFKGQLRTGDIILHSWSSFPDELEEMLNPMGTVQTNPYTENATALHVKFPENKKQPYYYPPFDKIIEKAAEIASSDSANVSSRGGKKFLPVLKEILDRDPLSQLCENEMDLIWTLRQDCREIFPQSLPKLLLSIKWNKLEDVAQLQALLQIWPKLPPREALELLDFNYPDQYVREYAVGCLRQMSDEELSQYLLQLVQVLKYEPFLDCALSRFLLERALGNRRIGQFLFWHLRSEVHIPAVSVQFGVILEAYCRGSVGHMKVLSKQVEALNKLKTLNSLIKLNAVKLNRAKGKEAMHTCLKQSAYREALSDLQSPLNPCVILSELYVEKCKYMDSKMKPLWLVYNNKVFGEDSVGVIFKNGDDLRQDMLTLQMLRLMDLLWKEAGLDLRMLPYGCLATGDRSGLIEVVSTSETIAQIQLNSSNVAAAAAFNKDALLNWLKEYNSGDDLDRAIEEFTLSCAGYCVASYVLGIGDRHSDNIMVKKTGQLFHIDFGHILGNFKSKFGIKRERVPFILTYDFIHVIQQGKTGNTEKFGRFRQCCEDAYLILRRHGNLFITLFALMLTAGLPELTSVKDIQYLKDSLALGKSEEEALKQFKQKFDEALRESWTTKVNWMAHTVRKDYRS
UniProt P42338, whole entry E858H, species assumed: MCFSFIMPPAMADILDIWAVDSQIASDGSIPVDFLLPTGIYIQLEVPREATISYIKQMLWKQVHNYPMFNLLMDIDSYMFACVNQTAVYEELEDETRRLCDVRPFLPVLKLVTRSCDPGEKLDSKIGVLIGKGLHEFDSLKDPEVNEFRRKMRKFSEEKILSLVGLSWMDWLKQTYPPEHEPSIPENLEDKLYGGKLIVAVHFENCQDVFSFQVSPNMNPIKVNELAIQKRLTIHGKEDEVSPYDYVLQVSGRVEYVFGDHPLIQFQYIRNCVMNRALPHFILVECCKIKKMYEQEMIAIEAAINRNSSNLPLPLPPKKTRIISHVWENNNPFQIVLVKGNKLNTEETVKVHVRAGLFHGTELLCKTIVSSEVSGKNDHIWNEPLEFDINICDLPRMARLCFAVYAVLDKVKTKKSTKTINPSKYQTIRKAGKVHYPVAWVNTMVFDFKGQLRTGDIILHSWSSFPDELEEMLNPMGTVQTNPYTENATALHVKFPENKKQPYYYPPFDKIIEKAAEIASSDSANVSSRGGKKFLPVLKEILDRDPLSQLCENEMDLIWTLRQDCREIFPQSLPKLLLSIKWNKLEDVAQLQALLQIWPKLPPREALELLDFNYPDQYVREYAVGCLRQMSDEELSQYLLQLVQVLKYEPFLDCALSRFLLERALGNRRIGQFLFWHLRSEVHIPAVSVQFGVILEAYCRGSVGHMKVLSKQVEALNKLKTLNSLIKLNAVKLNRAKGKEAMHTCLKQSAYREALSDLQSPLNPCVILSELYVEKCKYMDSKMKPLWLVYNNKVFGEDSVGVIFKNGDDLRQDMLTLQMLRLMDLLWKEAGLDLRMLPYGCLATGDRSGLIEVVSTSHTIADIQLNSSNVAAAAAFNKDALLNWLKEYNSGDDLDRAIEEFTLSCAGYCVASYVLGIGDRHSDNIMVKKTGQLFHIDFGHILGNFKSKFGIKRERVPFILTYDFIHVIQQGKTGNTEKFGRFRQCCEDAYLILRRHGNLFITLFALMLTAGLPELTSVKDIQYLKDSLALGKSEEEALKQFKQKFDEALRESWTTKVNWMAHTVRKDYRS

Tests used:
p110β (D862Q) = p110β (D862Q) (Homo sapiens, UniProt P42338, D862Q); experiment: PI3K lipid kinase inhibition assay, p110β D862Q mutant; type: biochemical
p110β (E858H) = p110β (E858H) (Homo sapiens, UniProt P42338, E858H); experiment: PI3K lipid kinase inhibition assay, p110β E858H mutant; type: biochemical

IC50 (p110β (D862Q)): 620 nM
IC50 (p110β (E858H)): 360 nM
SMILES: O=c1cc(N2CCOCC2)oc2c(-c3ccccc3)cccc12 [LY294002]
